Antibody variant affinities, Ab-14 heavy chain, assay 1

The measurements come from Engelhart et al. 2022 (doi:10.1038/s41597-022-01779-4) through the FLAb antibody collection.

Target: peptide PDVDLGDISGINAS, taken from heptad repeat 2 (HR2) of SARS-CoV-2 spike.

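The starting antibody came from a phage panning campaign against this peptide. In library AAYL49, one, two or three CDR residues were substituted; doubles and triples were drawn at random. Affinity was read by AlphaSeq, a pooled yeast mating assay with surface-displayed partners. Binding brings cells together so that they mate, and sequencing counts the barcode pairs among the diploids. Scores were corrected for input abundance and mapped to Kd with protein pairs of known affinity run in the same pool. Each pool was mated in three replicate cultures.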

Ab-14 is the parent antibody, in scFv form: VH, then the linker GGGGSGGGGSGGGGS, then VL. The light chain is unchanged in all variants.
VH: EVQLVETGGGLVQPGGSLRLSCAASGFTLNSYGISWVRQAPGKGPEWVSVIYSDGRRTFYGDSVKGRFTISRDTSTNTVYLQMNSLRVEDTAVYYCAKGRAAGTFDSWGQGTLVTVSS
VL: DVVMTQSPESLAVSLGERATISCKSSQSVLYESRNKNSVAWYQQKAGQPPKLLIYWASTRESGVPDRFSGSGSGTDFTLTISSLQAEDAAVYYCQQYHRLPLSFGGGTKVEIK

Substitutions are numbered in sequence along the VH above, starting at 1 (not Kabat). Affinities are written as log10 Kd with Kd in nM; a lower number is a better binder. A mean of the replicates is given; it leaves out those without a signal. Where no diploid with the target was found in that replicate, the entry reads "nd": below detection, most likely a poor binder, though not proof of it. Order: sorted from the lowest average up, undetected variants last. Background: pairings of library AAYL49 with three empty control strains gave a value in 15% of cases (median 4.06, 5th percentile 2.83). Values in that range, when seen in few replicates, are hard to tell from nonspecific mating. In this assay the parent's reference entry averaged 0.65; its copy inside this library read 4.11 (one replicate of three).

changes | log10 Kd, replicates | mean, log10 nM
G61S/R100M/F105G | 0.15 / 0.56 / 0.16 | 0.29
V64M/K65L/A101V | 1.46 / 1.51 / 1.59 | 1.52
V50I/S107F | 1.67 / 1.64 / 1.37 | 1.56
N30S/G61A/K65V | 1.60 / 1.89 / 1.59 | 1.69
N30H/S63G | 1.88 / 1.92 / 1.90 | 1.90
N30W/D62Q/S107M | 3.04 / 2.27 / nd | 2.66
Y32V/A101D/G103M | nd / 3.45 / nd | 3.45
S63V/V64E/G99E | nd / 3.67 / 3.23 | 3.45
D54S/A101Q | nd / 3.46 / nd | 3.46
S35L/F105S | 3.64 / nd / nd | 3.64
G61S/D62A | nd / 3.75 / nd | 3.75
Y60P/F105T | nd / 3.79 / nd | 3.79
R57N/V64Y/K65M | 3.92 / nd / nd | 3.92
I34K/G55Y/A102P | 4.07 / nd / nd | 4.07
F27Y/L29E/T104C | 4.15 / nd / nd | 4.15
F27D/S53G/A102D | 5.82 / 3.11 / 3.85 | 4.26
Y32M/G99T/S107N | 4.20 / 4.66 / nd | 4.43
R100F/F105Q/D106E | 4.88 / nd / nd | 4.88
G26Y/G55T/F105D | nd / 4.98 / nd | 4.98
G26C/R56G/D106R | 4.97 / 5.18 / nd | 5.07
N30I/D54T | 5.11 / nd / nd | 5.11
F27M/S35R/G103H | nd / nd / 5.38 | 5.38
F27Q/Y52I/G61E | nd / nd / nd | nd
T58N/D62A/G103Y | nd / nd / nd | nd
I34V/I51H/G103N | nd / nd / nd | nd
I51K/Y52V/G99Y | nd / nd / nd | nd
G26H/D62T/T104E | nd / nd / nd | nd
F27R/T28I/V50D | nd / nd / nd | nd
L29P/K65L/T104A | nd / nd / nd | nd
G99Y/G103S/S107G | nd / nd / nd | nd
Y32P/V50S/V64K | nd / nd / nd | nd
T28A/L29N/D62Q | nd / nd / nd | nd
R57L/V64Q/F105S | nd / nd / nd | nd
V50Y/D106N | nd / nd / nd | nd
S35N/G61Y/K65L | nd / nd / nd | nd
S53M/D54F/D62T | nd / nd / nd | nd
F27L/R56E/F105Y | nd / nd / nd | nd
G55Q/T58L | nd / nd / nd | nd
L29F/V50R/S107T | nd / nd / nd | nd
G55T/K65R/A101W | nd / nd / nd | nd